Data: ChEMBL document CHEMBL4020829, “Structure-Activity Relationships and Computational Investigations into the Development of Potent and Balanced Dual-Acting Butyrylcholinesterase Inhibitors and Human Cannabinoid Receptor 2 Ligands with Pro-Cognitive in Vivo Profiles” (J Med Chem, 2018)

Amino acid sequences for entries named in this document (tags omitted).
UniProt P35372, whole entry: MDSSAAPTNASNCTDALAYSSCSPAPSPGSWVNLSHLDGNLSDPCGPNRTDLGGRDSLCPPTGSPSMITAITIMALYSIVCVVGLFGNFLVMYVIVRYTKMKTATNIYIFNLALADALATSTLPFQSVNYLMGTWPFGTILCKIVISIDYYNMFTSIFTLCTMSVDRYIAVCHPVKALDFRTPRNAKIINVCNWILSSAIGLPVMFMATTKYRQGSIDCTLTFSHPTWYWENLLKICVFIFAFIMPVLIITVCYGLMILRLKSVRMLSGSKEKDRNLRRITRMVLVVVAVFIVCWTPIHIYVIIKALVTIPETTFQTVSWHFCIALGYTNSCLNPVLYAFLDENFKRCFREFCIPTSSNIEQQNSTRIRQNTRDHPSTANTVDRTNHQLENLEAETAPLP

Target: Mu-type opioid receptor (Homo sapiens, UniProt P35372)
Experiment: Displacement of [3H]-Diprenorphine from human mu opioid receptor expressed in HEK293-TSA cell membranes after 4 hrs by scintillation counting method

Q: How did the Ki turn out when CCOc1ccc(Cc2nc3cc(C(=O)N(CC)CC)ccc3n2CCC(C)C)cc1 was run?
A: 6.7 µM

Q: With CCOc1ccc(Nc2nc3cc(C(=O)N(CC)CC)ccc3n2CCC(C)C)cc1 as the molecule, how does the Ki read?
A: 53.6 µM
